The nature of the data set: Toxicity in ip dosed Sprague-Dawley rat. Particulars: in vivo.

This is a selection: effects in other tests are not listed, and their absence says nothing.

For orientation: LD50 means the dose expected to kill half of the subjects tested. The compound `COc1ccc([N+](=O)[O-])cc1[N+](=O)[O-]` had an LD50 of 350 mg/kg.

For the origin of these results see ChEMBL document CHEMBL4308823, “Small Molecule Mitochondrial Uncouplers and Their Therapeutic Potential” (J Med Chem, 2018).
